# Assay results published in patent US20220267436A1 (NANJING GENSCRIPT BIOTECH, published 2022).
# Amino acid sequences for entries named in this document (tags omitted). Residues count along the entry.
# UniProt Q08722, 19-323: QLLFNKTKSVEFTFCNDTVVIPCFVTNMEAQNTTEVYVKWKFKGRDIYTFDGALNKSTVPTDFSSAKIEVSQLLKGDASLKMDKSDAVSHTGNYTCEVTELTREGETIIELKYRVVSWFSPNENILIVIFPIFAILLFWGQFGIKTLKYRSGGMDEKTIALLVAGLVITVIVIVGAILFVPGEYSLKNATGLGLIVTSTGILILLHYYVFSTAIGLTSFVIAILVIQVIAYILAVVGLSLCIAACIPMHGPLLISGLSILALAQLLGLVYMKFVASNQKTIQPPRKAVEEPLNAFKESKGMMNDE
# B1: bispecific antibody LAG3-E-LC (bispecific antibody, human IgG4 S228P, kappa)
# heavy: not shown
# light: EIVLTQSPATLSLSPGERATLSCRASENVGTYISWYQQKPGQAPRLLIYGASNRYTGIPARFSGSGSGTDFTLTISSLEPEDFAVYYCGESYGHLYTFGGGTKVEIKRTVAAPSVFIFPPSDEQLKSGTASVVCLLNNFYPREAKVQWKVDNALQSGNSQESVTEQDSKDSTYSLSSTLTLSKADYEKHKVYACEVTHQGLSSPVTKSFNRGECEPKSSDKTHTSPPSPEVQLVESGGGLVQPGGSLRLSCAASGYTVSSYCMGWFRQAPGKGREGVSAIDSDGSVSYADSVKGRFTISKDNSKNTLYLQMNSLRAEDTAVYFCAADLCWVDQDQGEYNTWGQGTLVTVSS
# notes: Two identical fused chains and two identical natural chains; also called L1 + H0
# Molecular target: T1, human CD47 (human, UniProt Q08722 19-323)
# T1 construct: whole, on cells; also called CD47 antigen; integrin associated protein
# Experiment: flow cytometry on CHO-K1 cells expressing human CD47
# Procedure: For the constructed series of bispecific antibodies, the affinity of these samples with antigens was measured by using a flow cytometer. […] Then, an antibody-antigen binding curve was generated based on the geometric mean, raw data of four parameters was plotted by using the […] Prism V6.02 software, and a best fitted value program was compiled to analyze EC₅₀.
binder,measurement,value
B1,binding result,binds
